# Water solubility values, as collected for the OPERA models

Data: OPERA 2.9 data sets, kmansouri/OPERA on GitHub.

Solubility in water is on a log10 molar scale (set defined at 25 °C).
Cells with "–" have no entry in this list.

| structure (SMILES) | name | log solubility (log10 mol/L) |
|---|---|---|
| Oc1ccc(OCc2ccccc2)cc1 | 4-(Benzyloxyl)phenol | -3.708 |
| Cc1ccc2c(=O)c3cccc(CC(=O)O)c3oc2c1C | 5,6-Dimethylxanthenone-4-acetic acid | -5.32 |
| CC(=O)c1nc2c(=O)n(C)c(=O)n(C)c2nc1C | 6-Acetyl-1,3,7-trimethylpteridine-2,4(1H,3H)-dione | -2.073 |
| CC(C)CCCC(C)(C)O | 2,6-Dimethyl-2-heptanol | -2.287 |
| CN(C)CCC(c1ccccc1)c1ccccn1 (configuration not stated) | Pheniramine | -2.804 |
| CCCCCCCCCCCC=O | Dodecanal | -5.061 |
| Clc1ccc(Oc2c(Cl)cc(Cl)c(Cl)c2Cl)c(Cl)c1 | 2,2',4,4',5,6-Hexachlorodiphenyl ether | -8.285 |
| CCCCCCN1CCCC1=O | 2-Pyrrolidinone, 1-hexyl- | -1.101 |
| CC1(OC(=O)c2ccccc2C(=O)OC2(C)CCCCC2)CCCCC1 | Bis(1-methylcyclohexyl) benzene-1,2-dicarboxylate | -6.838 |
| CC1(C)COP(=O)(NCCNP2(=O)OCC(C)(C)CO2)OC1 | – | -2.764 |
| CC1(C)CC/C(=C\c2ccc(Cl)cc2)C1=O | (E)-5((4-Chlorophenyl)methylene)-2,2-dimethylcyclopentanone | -5.672 |
| Nc1c(-c2nc3cc4c(cc3o2)C(=O)c2ccccc2C4=O)ccc2c1C(=O)c1ccccc1C2=O | – | -5.496 |
| Cc1cnc2c(=O)nc[nH]c2n1 | 4(3H)-Pteridinone, 7-methyl- | -1.561 |
| CC(=O)[C@@]1(O)CC[C@H]2[C@@H]3C=C(Cl)C4=CC(=O)[C@@H]5C[C@@H]5[C@]4(C)[C@H]3CC[C@@]21C | Cyproterone | -4.751 |
| O=c1[nH]c(=O)c2[nH]cnc2[nH]1 | Xanthine | -3.33 |
| CCNC(=S)NCC | N,N'-Diethylthiourea | -1.46 |
| CC(O)C(=O)O.CCCCC(CC)COC(=O)Nc1ccc(C)c(NC(=O)OCCN(C)C)c1 (configuration not stated) | – | -0.235 |
| CC1(C)c2ccccc2-c2ccc(Nc3ccccc3-c3ccccc3)cc21 | N-([1,1'-Biphenyl]-2-yl)-9,9-dimethyl-9H-fluoren-2-amine | -7.382 |
| COC(=O)c1ccc(C(=O)OC)c(N)c1 | Dimethyl aminoterephthalate | -3.718 |
| Cn1c(=O)c2c(ncn2CC=O)n(C)c1=O | – | -1.268 |
| CN1C(CSCC(F)(F)F)Nc2cc(Cl)c(S(N)(=O)=O)cc2S1(=O)=O (configuration not stated) | Polythiazide | -2.933 |
| CC(=O)OCCC1CCCCC1 | 2-Cyclohexylethyl acetate | -4.18 |
| C[C@H]1O[C@H](O[C@H]2[C@H](O)[C@@H](O)[C@@H](O[C@@H]([C@H](O)[C@@H](O)C=O)[C@H](O)CO)O[C@@H]2CO)[C@H](O)[C@@H](O)[C@@H]1N[C@H]1C=C(CO)[C@@H](O)[C@H](O)[C@H]1O | Acarbose | -0.64 |
| Brc1cc2ccccc2cc1Br | Naphthalene, 2,3-dibromo- | -6.32 |
| O=C1CC2(CCCC2)CC(=O)N1CCCCN1CCN(c2ncccn2)CC1 | Buspirone | -2.817 |
| O=C(O)CN(C(=S)SCc1ccccc1)c1ccccc1 | S-Benzyl-N-(dithiocarboxy)-N-phenylglycine | -3.922 |
| O=C1CCCCCCCCCCCCCCO1 | Pentadecan-15-olide | -5.904 |
| CCCCCCCCCCCCCCOC(=O)/C=C/C(=O)OCCCCCCCCCCCCCC | 2-Butenedioic acid (2E)-, 1,4-ditetradecyl ester | -7.008 |
| Nc1nc(=O)c2c(CCc3ccc(C(=O)O)cc3)c[nH]c2[nH]1 | – | -3.574 |
| N[C@@H](C(=O)N[C@@H]1C(=O)N2C(C(=O)O)=C(Cl)CC[C@H]12)c1ccccc1 | – | -3.032 |
| CCC(C(=O)O)C(O)c1ccccc1 (configuration not stated) | 2-[Hydroxy(phenyl)methyl]butanoic acid | -1.019 |
| CCC(Cc1ccccc1)(C(=O)c1ccc(N2CCOCC2)cc1)N(C)C (configuration not stated) | – | -4.793 |
| CC(=O)O[C@]1(C(C)=O)CC[C@H]2[C@@H]3C=CC4=CC(=O)C=C[C@]4(C)[C@H]3CC[C@@]21C | 17-Acetoxy-1,4,6-pregnatriene-3,20-dione | -4.265 |

A selection of 3 entries from above:

{"smiles": "CC(=O)O[C@]1(C(C)=O)CC[C@H]2[C@@H]3C=CC4=CC(=O)C=C[C@]4(C)[C@H]3CC[C@@]21C", "name": "17-Acetoxy-1,4,6-pregnatriene-3,20-dione", "log solubility (log10 mol/L)": "-4.265"}
{"smiles": "Clc1ccc(Oc2c(Cl)cc(Cl)c(Cl)c2Cl)c(Cl)c1", "name": "2,2',4,4',5,6-Hexachlorodiphenyl ether", "log solubility (log10 mol/L)": "-8.285"}
{"smiles": "CCNC(=S)NCC", "name": "N,N'-Diethylthiourea", "log solubility (log10 mol/L)": "-1.46"}

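The numbers are reported measurements, compiled and curated for the OPERA QSAR suite. A listed value is a point estimate from one report or more. Method, purity and exact conditions of the single measurements are not given. A value may pool stereoisomers or salt forms, and the file does not say which form was measured. Some entries may be limits or estimates that an upstream database listed as plain numbers.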